Patent EP4834897A1, “COMPOUNDS WITH TWO AZAHETEROCYCLES SUBSTITUTED ISOINDOLINONE SKELETON AND USES THEREOF” (dated 2026)

Protein sequences, listed by entry. Tags and fused reporters are not part of them.
UniProt P15170, whole entry: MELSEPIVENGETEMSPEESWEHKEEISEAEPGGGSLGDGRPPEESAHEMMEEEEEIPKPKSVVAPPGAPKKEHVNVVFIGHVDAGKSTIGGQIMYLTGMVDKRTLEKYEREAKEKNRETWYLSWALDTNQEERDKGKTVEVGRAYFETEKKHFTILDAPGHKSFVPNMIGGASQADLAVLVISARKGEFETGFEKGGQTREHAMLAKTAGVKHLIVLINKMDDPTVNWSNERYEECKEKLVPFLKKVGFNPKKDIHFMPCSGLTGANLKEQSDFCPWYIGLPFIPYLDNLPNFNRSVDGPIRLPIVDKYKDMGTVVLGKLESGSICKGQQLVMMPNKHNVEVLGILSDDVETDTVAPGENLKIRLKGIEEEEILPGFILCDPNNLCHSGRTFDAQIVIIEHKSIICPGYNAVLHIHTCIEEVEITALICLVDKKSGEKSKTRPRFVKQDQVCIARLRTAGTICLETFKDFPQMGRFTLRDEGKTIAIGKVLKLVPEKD
UniProt Q96SW2, whole entry: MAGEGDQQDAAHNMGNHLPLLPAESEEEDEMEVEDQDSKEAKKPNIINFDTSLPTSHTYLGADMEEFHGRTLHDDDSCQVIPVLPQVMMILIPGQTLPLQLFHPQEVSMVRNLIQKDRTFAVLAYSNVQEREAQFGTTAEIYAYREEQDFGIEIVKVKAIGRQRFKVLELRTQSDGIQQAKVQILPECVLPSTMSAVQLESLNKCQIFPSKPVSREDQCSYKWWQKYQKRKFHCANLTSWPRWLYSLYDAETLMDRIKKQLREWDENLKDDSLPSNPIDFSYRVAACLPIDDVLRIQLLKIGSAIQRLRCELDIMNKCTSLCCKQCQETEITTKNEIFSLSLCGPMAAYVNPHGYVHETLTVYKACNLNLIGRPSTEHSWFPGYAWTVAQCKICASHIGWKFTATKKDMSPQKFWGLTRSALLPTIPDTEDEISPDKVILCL
UniProt Q9UKS7, whole entry: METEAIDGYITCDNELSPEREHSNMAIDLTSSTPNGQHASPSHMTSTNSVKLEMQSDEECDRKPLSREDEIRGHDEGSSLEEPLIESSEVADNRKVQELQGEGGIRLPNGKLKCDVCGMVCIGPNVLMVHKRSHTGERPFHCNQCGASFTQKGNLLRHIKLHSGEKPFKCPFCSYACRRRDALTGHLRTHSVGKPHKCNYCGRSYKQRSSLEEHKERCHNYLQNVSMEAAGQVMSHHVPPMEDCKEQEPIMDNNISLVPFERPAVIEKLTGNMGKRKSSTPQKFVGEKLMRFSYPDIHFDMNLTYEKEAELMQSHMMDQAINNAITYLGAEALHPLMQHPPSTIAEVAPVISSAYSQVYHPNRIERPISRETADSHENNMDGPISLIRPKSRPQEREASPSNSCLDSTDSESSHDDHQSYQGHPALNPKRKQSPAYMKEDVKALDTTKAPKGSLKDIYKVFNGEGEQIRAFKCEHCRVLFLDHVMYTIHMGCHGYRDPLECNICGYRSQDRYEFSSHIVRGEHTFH
UniProt P30291, whole entry: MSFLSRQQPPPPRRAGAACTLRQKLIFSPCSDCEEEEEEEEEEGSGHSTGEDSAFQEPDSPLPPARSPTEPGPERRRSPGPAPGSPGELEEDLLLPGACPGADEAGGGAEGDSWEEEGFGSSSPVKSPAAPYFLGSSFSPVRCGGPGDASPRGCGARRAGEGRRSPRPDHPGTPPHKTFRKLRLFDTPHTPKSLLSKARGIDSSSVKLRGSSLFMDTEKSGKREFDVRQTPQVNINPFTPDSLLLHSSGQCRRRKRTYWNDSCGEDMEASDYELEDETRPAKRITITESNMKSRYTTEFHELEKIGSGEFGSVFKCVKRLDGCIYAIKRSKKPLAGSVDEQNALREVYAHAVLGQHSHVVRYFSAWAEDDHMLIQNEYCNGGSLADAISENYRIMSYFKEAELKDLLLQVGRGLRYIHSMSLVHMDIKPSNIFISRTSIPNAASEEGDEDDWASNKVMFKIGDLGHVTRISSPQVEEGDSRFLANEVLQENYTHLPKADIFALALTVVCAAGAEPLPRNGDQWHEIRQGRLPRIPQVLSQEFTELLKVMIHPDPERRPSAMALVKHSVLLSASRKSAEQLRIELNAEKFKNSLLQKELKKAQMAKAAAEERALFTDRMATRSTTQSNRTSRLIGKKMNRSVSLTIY
UniProt Q13422, whole entry: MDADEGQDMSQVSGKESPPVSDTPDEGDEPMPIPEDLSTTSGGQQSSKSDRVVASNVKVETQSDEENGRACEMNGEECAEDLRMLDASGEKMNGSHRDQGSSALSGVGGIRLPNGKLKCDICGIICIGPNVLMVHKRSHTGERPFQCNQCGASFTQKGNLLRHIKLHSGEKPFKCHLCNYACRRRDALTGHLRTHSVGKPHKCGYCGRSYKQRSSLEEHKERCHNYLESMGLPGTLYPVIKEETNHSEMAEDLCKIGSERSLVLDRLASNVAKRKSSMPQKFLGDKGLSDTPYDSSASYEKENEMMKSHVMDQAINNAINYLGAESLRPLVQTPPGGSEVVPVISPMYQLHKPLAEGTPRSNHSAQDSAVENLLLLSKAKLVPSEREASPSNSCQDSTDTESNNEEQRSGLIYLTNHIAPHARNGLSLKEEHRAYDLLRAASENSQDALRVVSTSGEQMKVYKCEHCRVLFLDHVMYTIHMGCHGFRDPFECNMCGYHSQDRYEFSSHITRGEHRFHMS
UniProt P48729, whole entry: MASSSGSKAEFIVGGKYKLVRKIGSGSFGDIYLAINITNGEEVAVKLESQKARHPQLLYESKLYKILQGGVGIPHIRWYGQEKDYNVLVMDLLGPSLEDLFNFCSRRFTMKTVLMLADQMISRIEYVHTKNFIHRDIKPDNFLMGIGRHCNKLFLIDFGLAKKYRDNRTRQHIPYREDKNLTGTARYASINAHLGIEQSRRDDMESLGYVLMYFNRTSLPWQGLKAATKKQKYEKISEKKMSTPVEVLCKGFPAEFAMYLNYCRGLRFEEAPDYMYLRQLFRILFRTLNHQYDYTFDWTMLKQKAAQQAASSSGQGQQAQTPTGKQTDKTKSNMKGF
UniProt Q9UKT9, whole entry: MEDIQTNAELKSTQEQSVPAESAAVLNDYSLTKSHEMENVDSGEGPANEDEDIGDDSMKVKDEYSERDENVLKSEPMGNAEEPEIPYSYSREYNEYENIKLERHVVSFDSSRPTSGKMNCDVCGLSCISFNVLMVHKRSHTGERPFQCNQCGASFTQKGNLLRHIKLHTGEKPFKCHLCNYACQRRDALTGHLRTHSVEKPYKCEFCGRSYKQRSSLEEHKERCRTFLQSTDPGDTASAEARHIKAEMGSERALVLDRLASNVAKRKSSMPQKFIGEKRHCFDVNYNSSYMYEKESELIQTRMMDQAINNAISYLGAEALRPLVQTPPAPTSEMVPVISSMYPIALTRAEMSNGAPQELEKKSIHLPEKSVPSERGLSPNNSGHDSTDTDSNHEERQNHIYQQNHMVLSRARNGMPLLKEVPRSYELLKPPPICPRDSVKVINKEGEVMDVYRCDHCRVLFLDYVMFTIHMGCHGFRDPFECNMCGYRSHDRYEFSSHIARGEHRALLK
UniProt Q16531, whole entry partner: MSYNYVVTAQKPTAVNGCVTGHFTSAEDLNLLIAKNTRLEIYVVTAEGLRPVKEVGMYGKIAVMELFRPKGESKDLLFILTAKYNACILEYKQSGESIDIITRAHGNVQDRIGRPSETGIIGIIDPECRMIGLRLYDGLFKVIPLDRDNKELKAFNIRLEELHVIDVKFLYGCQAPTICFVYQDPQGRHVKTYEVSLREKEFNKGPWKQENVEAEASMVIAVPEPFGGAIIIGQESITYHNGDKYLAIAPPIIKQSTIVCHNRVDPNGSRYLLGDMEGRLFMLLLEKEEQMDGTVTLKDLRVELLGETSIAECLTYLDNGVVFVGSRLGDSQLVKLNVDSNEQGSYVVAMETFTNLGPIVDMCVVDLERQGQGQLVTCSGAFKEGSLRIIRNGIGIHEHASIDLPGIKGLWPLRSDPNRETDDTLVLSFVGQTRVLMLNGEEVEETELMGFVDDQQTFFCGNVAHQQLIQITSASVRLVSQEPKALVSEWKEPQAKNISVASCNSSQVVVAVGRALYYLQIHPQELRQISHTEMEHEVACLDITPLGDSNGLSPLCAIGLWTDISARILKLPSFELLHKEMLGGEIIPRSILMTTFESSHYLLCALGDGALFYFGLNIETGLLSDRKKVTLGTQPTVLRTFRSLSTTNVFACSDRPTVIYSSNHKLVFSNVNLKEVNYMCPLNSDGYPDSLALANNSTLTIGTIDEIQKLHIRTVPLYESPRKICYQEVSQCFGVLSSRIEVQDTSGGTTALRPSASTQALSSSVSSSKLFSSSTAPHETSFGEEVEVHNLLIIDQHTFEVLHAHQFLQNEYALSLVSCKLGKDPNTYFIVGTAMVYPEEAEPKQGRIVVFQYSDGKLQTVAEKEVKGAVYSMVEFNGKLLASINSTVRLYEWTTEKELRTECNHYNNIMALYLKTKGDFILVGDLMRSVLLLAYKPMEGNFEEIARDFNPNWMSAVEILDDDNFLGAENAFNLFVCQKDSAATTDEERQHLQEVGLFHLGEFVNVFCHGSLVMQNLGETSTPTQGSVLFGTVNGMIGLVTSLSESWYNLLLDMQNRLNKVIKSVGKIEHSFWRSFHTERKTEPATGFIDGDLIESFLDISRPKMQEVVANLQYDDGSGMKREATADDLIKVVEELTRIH

Target: GSPT1 (Homo sapiens, UniProt P15170+Q96SW2)
Experiment: Western blot assay of substrate protein degradation in hPBMCs
Settings: 24 hours treatment, compounds at 50 nM and 500 nM (concentration behind the class not stated)

SMILES | substrate protein remaining % (GSPT1)
O=C1CCC(N2C(=O)c3cccc(C(=O)N4CCC(N5CCN(c6noc7cc(F)ccc67)CC5)C(F)(F)C4)c3C2=O)C(=O)N1 (stereo not drawn) | B (80%< substrate protein remaining %≤ 100%)
O=C1CCC(N2Cc3cccc(CN4CCC(N5CCC(c6noc7cc(F)ccc67)CC5)C(F)(F)C4)c3C2=O)C(=O)N1 (stereo not drawn) | A (0% ≤ substrate protein remaining % ≤ 80%)
O=C1CCC(N2Cc3cccc(C(=O)N4CCC(N5CCN(C(c6ccccc6)c6ccccc6)CC5)CC4)c3C2=O)C(=O)N1 (stereo not drawn) | A (0% ≤ substrate protein remaining % ≤ 80%)
CC1(C)CCC(CN2CCN(C3CCN(Cc4ccc5c(c4)C(=O)N(C4CCC(=O)NC4=O)C5=O)CC3(F)F)CC2)=C(c2ccc(Cl)cc2)C1 (stereo not drawn) | A (0% ≤ substrate protein remaining % ≤ 80%)
O=C1CCC(N2Cc3ccc(CN4CCC(N5CCN(c6cccc(Cl)c6Cl)CC5)CC4)cc3C2=O)C(=O)N1 (stereo not drawn) | A (0% ≤ substrate protein remaining % ≤ 80%)
O=C1CCC(N2C(=O)c3cccc(CN4CCC(N5CCN(c6cccc(Cl)c6Cl)CC5)C(F)(F)C4)c3C2=O)C(=O)N1 (stereo not drawn) | A (0% ≤ substrate protein remaining % ≤ 80%)
O=C1CCC(N2C(=O)c3cccc(CN4CCC(N5CCC(c6noc7cc(F)ccc67)CC5)C(F)(F)C4)c3C2=O)C(=O)N1 (stereo not drawn) | A (0% ≤ substrate protein remaining % ≤ 80%)

Target: IKZF2 (Homo sapiens, UniProt Q96SW2+Q9UKS7)
Experiment: as above
Settings: 24 hours treatment, compounds at 50 nM and 500 nM (concentration behind the class not stated)

SMILES | substrate protein remaining % (IKZF2)
O=C1CCC(N2C(=O)c3cccc(C(=O)N4CCC(N5CCN(c6noc7cc(F)ccc67)CC5)C(F)(F)C4)c3C2=O)C(=O)N1 (stereo not drawn) | A (0% ≤ substrate protein remaining % ≤ 80%)
O=C1CCC(N2Cc3cccc(CN4CCC(N5CCC(c6noc7cc(F)ccc67)CC5)C(F)(F)C4)c3C2=O)C(=O)N1 (stereo not drawn) | B (80%< substrate protein remaining %≤ 100%)
O=C1CCC(N2Cc3cccc(C(=O)N4CCC(N5CCN(C(c6ccccc6)c6ccccc6)CC5)CC4)c3C2=O)C(=O)N1 (stereo not drawn) | A (0% ≤ substrate protein remaining % ≤ 80%)
CC1(C)CCC(CN2CCN(C3CCN(Cc4ccc5c(c4)C(=O)N(C4CCC(=O)NC4=O)C5=O)CC3(F)F)CC2)=C(c2ccc(Cl)cc2)C1 (stereo not drawn) | A (0% ≤ substrate protein remaining % ≤ 80%)
O=C1CCC(N2Cc3ccc(CN4CCC(N5CCN(c6cccc(Cl)c6Cl)CC5)CC4)cc3C2=O)C(=O)N1 (stereo not drawn) | A (0% ≤ substrate protein remaining % ≤ 80%)
O=C1CCC(N2C(=O)c3cccc(CN4CCC(N5CCN(c6cccc(Cl)c6Cl)CC5)C(F)(F)C4)c3C2=O)C(=O)N1 (stereo not drawn) | B (80%< substrate protein remaining %≤ 100%)
O=C1CCC(N2C(=O)c3cccc(CN4CCC(N5CCC(c6noc7cc(F)ccc67)CC5)C(F)(F)C4)c3C2=O)C(=O)N1 (stereo not drawn) | B (80%< substrate protein remaining %≤ 100%)

Target: WEE1 (Homo sapiens, UniProt P30291+Q96SW2)
Experiment: as above
Settings: 24 hours treatment, compounds at 50 nM and 500 nM (concentration behind the class not stated)

SMILES | substrate protein remaining % (WEE1)
O=C1CCC(N2C(=O)c3cccc(C(=O)N4CCC(N5CCN(c6noc7cc(F)ccc67)CC5)C(F)(F)C4)c3C2=O)C(=O)N1 (stereo not drawn) | B (80%< substrate protein remaining %≤ 100%)
O=C1CCC(N2Cc3cccc(CN4CCC(N5CCC(c6noc7cc(F)ccc67)CC5)C(F)(F)C4)c3C2=O)C(=O)N1 (stereo not drawn) | B (80%< substrate protein remaining %≤ 100%)
O=C1CCC(N2Cc3cccc(C(=O)N4CCC(N5CCN(C(c6ccccc6)c6ccccc6)CC5)CC4)c3C2=O)C(=O)N1 (stereo not drawn) | B (80%< substrate protein remaining %≤ 100%)
CC1(C)CCC(CN2CCN(C3CCN(Cc4ccc5c(c4)C(=O)N(C4CCC(=O)NC4=O)C5=O)CC3(F)F)CC2)=C(c2ccc(Cl)cc2)C1 (stereo not drawn) | A (0% ≤ substrate protein remaining % ≤ 80%)
O=C1CCC(N2Cc3ccc(CN4CCC(N5CCN(c6cccc(Cl)c6Cl)CC5)CC4)cc3C2=O)C(=O)N1 (stereo not drawn) | B (80%< substrate protein remaining %≤ 100%)
O=C1CCC(N2C(=O)c3cccc(CN4CCC(N5CCN(c6cccc(Cl)c6Cl)CC5)C(F)(F)C4)c3C2=O)C(=O)N1 (stereo not drawn) | A (0% ≤ substrate protein remaining % ≤ 80%)
O=C1CCC(N2C(=O)c3cccc(CN4CCC(N5CCC(c6noc7cc(F)ccc67)CC5)C(F)(F)C4)c3C2=O)C(=O)N1 (stereo not drawn) | B (80%< substrate protein remaining %≤ 100%)

Target: IKZF1 (Homo sapiens, UniProt Q13422+Q96SW2)
Experiment: as above
Settings: 24 hours treatment, compounds at 50 nM and 500 nM (concentration behind the class not stated)

SMILES | substrate protein remaining % (IKZF 1)
O=C1CCC(N2C(=O)c3cccc(C(=O)N4CCC(N5CCN(c6noc7cc(F)ccc67)CC5)C(F)(F)C4)c3C2=O)C(=O)N1 (stereo not drawn) | B (80%< substrate protein remaining %≤ 100%)
O=C1CCC(N2Cc3cccc(CN4CCC(N5CCC(c6noc7cc(F)ccc67)CC5)C(F)(F)C4)c3C2=O)C(=O)N1 (stereo not drawn) | B (80%< substrate protein remaining %≤ 100%)
O=C1CCC(N2Cc3cccc(C(=O)N4CCC(N5CCN(C(c6ccccc6)c6ccccc6)CC5)CC4)c3C2=O)C(=O)N1 (stereo not drawn) | A (0% ≤ substrate protein remaining % ≤ 80%)
CC1(C)CCC(CN2CCN(C3CCN(Cc4ccc5c(c4)C(=O)N(C4CCC(=O)NC4=O)C5=O)CC3(F)F)CC2)=C(c2ccc(Cl)cc2)C1 (stereo not drawn) | B (80%< substrate protein remaining %≤ 100%)
O=C1CCC(N2Cc3ccc(CN4CCC(N5CCN(c6cccc(Cl)c6Cl)CC5)CC4)cc3C2=O)C(=O)N1 (stereo not drawn) | A (0% ≤ substrate protein remaining % ≤ 80%)
O=C1CCC(N2C(=O)c3cccc(CN4CCC(N5CCN(c6cccc(Cl)c6Cl)CC5)C(F)(F)C4)c3C2=O)C(=O)N1 (stereo not drawn) | A (0% ≤ substrate protein remaining % ≤ 80%)
O=C1CCC(N2C(=O)c3cccc(CN4CCC(N5CCC(c6noc7cc(F)ccc67)CC5)C(F)(F)C4)c3C2=O)C(=O)N1 (stereo not drawn) | B (80%< substrate protein remaining %≤ 100%)

Target: CK1α (Homo sapiens, UniProt P48729+Q96SW2)
Experiment: as above
Settings: 24 hours treatment, compounds at 50 nM and 500 nM (concentration behind the class not stated)

SMILES | substrate protein remaining % (CK1a)
O=C1CCC(N2C(=O)c3cccc(C(=O)N4CCC(N5CCN(c6noc7cc(F)ccc67)CC5)C(F)(F)C4)c3C2=O)C(=O)N1 (stereo not drawn) | B (80%< substrate protein remaining %≤ 100%)
O=C1CCC(N2Cc3cccc(CN4CCC(N5CCC(c6noc7cc(F)ccc67)CC5)C(F)(F)C4)c3C2=O)C(=O)N1 (stereo not drawn) | B (80%< substrate protein remaining %≤ 100%)
O=C1CCC(N2Cc3cccc(C(=O)N4CCC(N5CCN(C(c6ccccc6)c6ccccc6)CC5)CC4)c3C2=O)C(=O)N1 (stereo not drawn) | A (0% ≤ substrate protein remaining % ≤ 80%)
CC1(C)CCC(CN2CCN(C3CCN(Cc4ccc5c(c4)C(=O)N(C4CCC(=O)NC4=O)C5=O)CC3(F)F)CC2)=C(c2ccc(Cl)cc2)C1 (stereo not drawn) | B (80%< substrate protein remaining %≤ 100%)
O=C1CCC(N2Cc3ccc(CN4CCC(N5CCN(c6cccc(Cl)c6Cl)CC5)CC4)cc3C2=O)C(=O)N1 (stereo not drawn) | B (80%< substrate protein remaining %≤ 100%)
O=C1CCC(N2C(=O)c3cccc(CN4CCC(N5CCN(c6cccc(Cl)c6Cl)CC5)C(F)(F)C4)c3C2=O)C(=O)N1 (stereo not drawn) | A (0% ≤ substrate protein remaining % ≤ 80%)
O=C1CCC(N2C(=O)c3cccc(CN4CCC(N5CCC(c6noc7cc(F)ccc67)CC5)C(F)(F)C4)c3C2=O)C(=O)N1 (stereo not drawn) | B (80%< substrate protein remaining %≤ 100%)

Target: IKZF3 (Homo sapiens, UniProt Q96SW2+Q9UKT9)
Experiment: as above
Settings: 24 hours treatment, compounds at 50 nM and 500 nM (concentration behind the class not stated)

SMILES | substrate protein remaining % (IKZF3)
O=C1CCC(N2C(=O)c3cccc(C(=O)N4CCC(N5CCN(c6noc7cc(F)ccc67)CC5)C(F)(F)C4)c3C2=O)C(=O)N1 (stereo not drawn) | B (80%< substrate protein remaining %≤ 100%)
O=C1CCC(N2Cc3cccc(CN4CCC(N5CCC(c6noc7cc(F)ccc67)CC5)C(F)(F)C4)c3C2=O)C(=O)N1 (stereo not drawn) | B (80%< substrate protein remaining %≤ 100%)
O=C1CCC(N2Cc3cccc(C(=O)N4CCC(N5CCN(C(c6ccccc6)c6ccccc6)CC5)CC4)c3C2=O)C(=O)N1 (stereo not drawn) | B (80%< substrate protein remaining %≤ 100%)
CC1(C)CCC(CN2CCN(C3CCN(Cc4ccc5c(c4)C(=O)N(C4CCC(=O)NC4=O)C5=O)CC3(F)F)CC2)=C(c2ccc(Cl)cc2)C1 (stereo not drawn) | B (80%< substrate protein remaining %≤ 100%)
O=C1CCC(N2Cc3ccc(CN4CCC(N5CCN(c6cccc(Cl)c6Cl)CC5)CC4)cc3C2=O)C(=O)N1 (stereo not drawn) | B (80%< substrate protein remaining %≤ 100%)
O=C1CCC(N2C(=O)c3cccc(CN4CCC(N5CCN(c6cccc(Cl)c6Cl)CC5)C(F)(F)C4)c3C2=O)C(=O)N1 (stereo not drawn) | B (80%< substrate protein remaining %≤ 100%)
O=C1CCC(N2C(=O)c3cccc(CN4CCC(N5CCC(c6noc7cc(F)ccc67)CC5)C(F)(F)C4)c3C2=O)C(=O)N1 (stereo not drawn) | B (80%< substrate protein remaining %≤ 100%)
